The text below walks through data of US20250382289A1, “PYRAZOLOPYRIDINE DERIVATIVE AND APPLICATION THEREOF IN MEDICINE” (XIZANG HAISCO PHARMACEUTICAL CO., LTD., priority 2022, published 2025).

SMILES strings stand for the structures. Where only a bound is given, the exact number is not on record here.

The subject of this assay is MDA-MB-436 cells. Nature of the assay: Clone formation test of MDA-MB-436 cells. The settings on record: read-out: IC50 (nM), inhibitory activity on MDA-MB-436 cell clones; 14 days, crystal violet, OD 570 nm; tested form: trifluoroacetate. Here is the method: In this experiment, MDA-MB-436 cells were treated by adding a test compound to detect the ability of cell clone formation. At the beginning of the experiment, MDA-MB-436 cells (ATCC, HTB-130) were added to a 96-well plate (Corning, 3599), with 500 cells per well, and they were subjected to adherent culture overnight. The next day, the compound diluted in a gradient was added, and culture was continued in a […] incubator at 37° C. On the 7th day, the old culture medium was discarded, and the test compound diluted in a gradient was added again. At the 14th day, the 96-well plate was taken out, the culture liquid was discarded, and cell clones were detected by Crystal violet Assay kit. PHERAstar FSX microplate reader (BMG LABTECH) was used for detection of OD at 570 nm. The IC50 value was calculated using GraphPad Prism software.

By IC50 is commonly meant the concentration that inhibits the measured activity by half. Take `COc1ncnc(C2CC2)c1-c1ncc2cnn(Cc3ccc(-n4nc(C(F)(F)F)cc4C)cc3)c2c1F`: the IC50 was below 200 nM.
